This passage reports IC50 results from patent US5654308A (priority 1990, dated 1997).

The structures appear in SMILES notation.

This experiment has as its target acetylcholine esterase (Mus musculus, UniProt P21836). As to conditions: read-out: AChE inhibiting activity IC50; mouse brain homogenate; acetylthiocholine substrate, DTNB, 412 nm.
In the case of `Cc1ccc2c(n1)CN(C1CCN(Cc3ccccc3)CC1)C(=O)O2`, the IC50 (in general, the point on the concentration scale where inhibition reaches its midpoint) was found to be 56000 nM.

With `Cc1ccc2c(n1)CN(CCC1CCN(Cc3ccccc3)CC1)C(=O)O2`, the 50% inhibitory concentration (IC50) amounted to 0.79 nM.

For the molecule `O=C1Oc2cccnc2CN1CCC1CCN(Cc2ccccc2)CC1`, the IC50 turned out to be 3.92 nM.

As for `Cc1ccc2c(n1)CN(CCC1CCN(Cc3ccncc3)CC1)C(=O)O2`, the 50% inhibitory concentration (IC50) came out at 10.4 nM.
